These results are taken from patent US20080081021A1, “Manganese-enhanced magnetic resonance imaging of neurons using electrical stimulation” (priority 2006, published 2008).

Read-outs that look alike come from different tables or passages of the source.

In one data set the test system is cortical spinal tract. The text has this: The animals were anesthetized using spontaneous inhalation of 4% isoflurane for induction, followed by a mixture of 1.5% isoflurane, 30% oxygen, and air delivered through a nose mask. The rat's head was stabilized on a Plexigas holder and positioned into a 6 cm inner diameter volume coil for MRI scanning on a 9.4 T horizontal Varian scanner (Varian Inc., Palo Alto, Calif.). While in the scanner, the physiological condition of the rat was monitored using ECG, respiratory and temperature probes that were connected to an MR-compatible small animal monitoring and gating system (Model 1025, SA Instruments, Inc., Stony Brook, N.Y.). The rat's temperature was kept at about 37° C. by circulating warm air with 40% humidity using a 5 cm diameter plastic tube fitted to the back door of the magnet bore.

Data set [1] deals with cortical, subcortical and descending corticofugal pathways. The conditions noted are these: cited from earlier work.

As for manganese chloride, the “overall transport rate of manganese in cortical spinal tract” value in the data set on cortical spinal tract (5 cm/12 hr, injection site to thoracic spinal cord, with electrical stimulation) is ~4 mm/h. The “time of signal enhancement in the cortical spinal tract of the thoracic spinal cord” value with cortical spinal tract (after manganese injection and electrical stimulation) is reported as “about 12 hours”. Besides, the axoplasmic transport rate in data set [1] (cortical and subcortical regions) is 2.1-2.6 mm/h; in data set [1] (descending corticofugal pathways (between the internal capsule and the pyramidal decussation)), 4.6-6.1 mm/h.
